Laboratory results taken from US20080058411A1, “Methods For Treating Resistant Or Refractory Tumors” (GPC Biotech AG, priority 2004, published 2008).

System: NCI-Adr resistant subline
Assay: SRB cytotoxicity assay, P-glycoprotein expressing NCI-Adr resistant subline, with and without verapamil
Type: cell-based
Conditions: ratio of the means of the resistant cells compared to the sensitive cells

Row | Compound | RR (relative resistance) NCI-Adr resistant −verapamil vs +verapamil
1 | N.N.[Cl][Pt][Cl] [Cisplatin, cisplatin] | 0.93
2 | CC(=O)O[C@@]12CO[C@@H]1C[C@H](O)[C@@]1(C)C(=O)[C@H](O)C3=C(C)[C@@H](OC(=O)[C@H](O)[C@@H](NC(=O)OC(C)(C)C)c4ccccc4)C[C@@](O)([C@@H](OC(=O)c4ccccc4)[C@H]21)C3(C)C [Taxotere, N-debenzoyl-N-tert-butoxycarbonyl-10-deacetyl paclitaxel] | 33
